Data from patent CN115975031A.

Target: 表皮生长因子受体 (EGFR), on DiFi human colorectal cancer cells (human) (UniProt P00533)
Assay: cell-based or functional assay

生物活性 (DiFi细胞增殖抑制实验, CCK-8, OD450), 相对标准品Erbitux150819 (% of standard Erbitux150819): 30
Substance: 重组抗EGFR单克隆抗体的酸性组分 (HPLC-CEX保留时间小于10min的组分) (antibody)
